Biological target: MCM3-HA (HA epitope-tagged MCM3) (UniProt P25206)
Assay: cell-based or functional assay

Amino acid sequences for entries named in this document (tags omitted). A change or cut given only in a name is not applied to a line headed by its entry.
UniProt P25206: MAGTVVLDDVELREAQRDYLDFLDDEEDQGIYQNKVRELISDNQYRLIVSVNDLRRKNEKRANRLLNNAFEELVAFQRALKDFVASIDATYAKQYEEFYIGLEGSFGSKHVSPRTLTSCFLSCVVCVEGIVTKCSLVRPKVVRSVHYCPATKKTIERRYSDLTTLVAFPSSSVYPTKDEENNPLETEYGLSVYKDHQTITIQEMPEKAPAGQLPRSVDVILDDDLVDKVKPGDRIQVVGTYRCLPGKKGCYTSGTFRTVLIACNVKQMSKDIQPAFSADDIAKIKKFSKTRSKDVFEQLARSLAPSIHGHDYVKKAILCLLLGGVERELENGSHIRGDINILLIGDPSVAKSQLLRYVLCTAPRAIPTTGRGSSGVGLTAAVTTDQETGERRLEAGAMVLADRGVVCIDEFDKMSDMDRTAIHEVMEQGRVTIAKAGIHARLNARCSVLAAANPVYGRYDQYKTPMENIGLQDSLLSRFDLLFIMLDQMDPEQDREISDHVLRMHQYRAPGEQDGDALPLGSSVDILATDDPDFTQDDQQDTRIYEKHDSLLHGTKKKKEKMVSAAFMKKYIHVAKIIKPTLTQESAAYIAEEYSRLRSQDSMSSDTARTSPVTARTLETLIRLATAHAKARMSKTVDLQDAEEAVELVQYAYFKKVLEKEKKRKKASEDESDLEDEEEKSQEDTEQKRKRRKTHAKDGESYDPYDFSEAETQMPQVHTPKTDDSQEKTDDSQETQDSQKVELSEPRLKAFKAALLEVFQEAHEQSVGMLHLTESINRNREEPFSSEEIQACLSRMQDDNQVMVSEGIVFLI

## Gmap80-GFP (from UniProt P42212 1-238)
  expression of MCM3 in the cytoplasm (percent of cells): 4%
  nuclear expression level of Gmap80-GFP on cotransfection with MCM3 (percent of cells): 64%

Reference: patent US20080233109A1
